Values of other authors in patent publication US20020035131A1, “Regimen and kit for amelioration of premature ejaculation” (Pentech Pharmaceuticals, Inc., priority 1999, published 2002).

Test system: serotonin (5-HT) uptake in brain neurons
Details: cited from earlier work

## Fc1ccc([C@@H]2CCNC[C@H]2COc2ccc3c(c2)OCO3)cc1 (relative stereo) [paroxetine, trans-(−)-3-(1,3-benzodioxol-5-yloxy)methyl-4-(4-fluorophenyl) piperidine]
  inhibition of serotonin (5-HT) uptake in brain neurons: selectively inhibits
